Only some compounds are listed: those with a hit (about 0.46% of all), similar ones and a draw of the others.
HCMV UL50-53 inh: inhibitors of HCMV UL50-UL53 nuclear egress complex interaction. 190,000 tested, 0.15% active. AID 1918969. inhibition, % (test concentration not listed). HTRF UL50-UL53 interaction, normalized percent inhibition; in the data active = inhibition above about 27%, passing the limit was not always enough
GIV-Gai inh: inhibitors of GIV peptide binding to Galpha-i3, primary screen, biochemical, fluorescence polarization, FITC-GIV GBA peptide, rat Galphai3 | 90 min; stronger effect = lower value; scaled: aluminum fluoride 0%, vehicle 100% | AID 1224905, 2016 | 210,000 compounds, 0.42% hits | percent of control (FP), % (concentration not given with the values) | Guanine nucleotide-binding protein G(i) subunit alpha-3 (Rattus norvegicus), P08753;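 active = replicate mean at 85% of control or lower, very high polarization wells dropped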;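 note: wells of about 15 µL received 100 nL stock; the first replicate is given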
* marks the source's active call; other numbers are inactive results; / = no result given.

By UniProt entry, the sequences of proteins in these tests, tags left out.
Guanine nucleotide-binding protein G(i) subunit alpha-3 (Rattus norvegicus), P08753, UniProt P08753, whole entry, looked up: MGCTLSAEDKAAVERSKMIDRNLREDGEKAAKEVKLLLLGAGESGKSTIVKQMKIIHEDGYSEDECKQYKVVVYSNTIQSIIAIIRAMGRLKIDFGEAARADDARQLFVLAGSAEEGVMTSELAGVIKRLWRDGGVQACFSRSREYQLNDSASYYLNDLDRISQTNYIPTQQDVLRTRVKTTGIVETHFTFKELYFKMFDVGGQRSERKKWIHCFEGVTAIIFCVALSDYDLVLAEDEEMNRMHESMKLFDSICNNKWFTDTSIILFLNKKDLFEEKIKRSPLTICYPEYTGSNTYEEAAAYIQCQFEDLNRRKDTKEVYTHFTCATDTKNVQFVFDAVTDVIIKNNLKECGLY

1) Cc1[nH]c(=O)[nH]c(=O)c1S(=O)(=O)N1CCOc2ccccc2C1
2) CCCCCCc1cc2cc(-c3nnc(-c4cccc(Cl)c4)o3)c(=O)oc2cc1O
3) O=c1oc2ccccc2cc1-c1nnc(-c2cccc(Cl)c2)o1
4) COc1ccc(C(=O)Nc2cc(C(=O)Nc3ccc(OC)c(OC)c3)ccc2N2CC3CC(C2)c2cccc(=O)n2C3)cc1 (stereo not drawn)
5) c1cc(-c2ccc3c(c2)OCO3)[nH]n1
6) CCOC(=O)C1=C(N)n2c(s/c(=C\c3ccc(OC)c(OC)c3)c2=O)=C(C#N)C1c1ccc(OC)c(OC)c1 (stereo not drawn)
7) CN1C(=O)CSc2ccc(NC(=O)Nc3cccnc3)cc21
8) Cc1ccc(NC(=O)Nc2ccc3c(c2)N(C)C(=O)CS3)cc1
Screen / compound no. | 1 | 2 | 3 | 4 | 5 | 6 | 7 | 8
HCMV UL50-53 inh | -23.8 | -49.0 | 5.4 | / | -4.1 | / | 34.7* | /
GIV-Gai inh | 104.0 | 7.6* | 101.3 | 119.5 | / | 109.3 | 101.0 | 106.5

9) N#CCc1c(C#N)c(N)nc(Nc2ccccc2)c1C#N
10) CSc1nc(-c2ccccc2)nc(Nc2ccccc2)c1C#N
11) CCCN(CC1CC1)C(=S)Nc1cccc(C)c1C
12) CCSc1nc2ccc(NC(=O)CSc3nnc(C)s3)cc2s1
13) O[N+]1=CC=CCC1=S.On1ccccc1=S.[Zn]
14) c1ccc(-c2ccc(-c3ccccn3)nc2)nc1
15) COc1cc(OC)cc(C(=O)N(CCCN(C)C)c2nc3ccc(F)cc3s2)c1
16) O=C(NCCCN1CCOCC1)C1CCCN(c2ncc(-c3ccccc3)cn2)C1 (stereo not drawn)
Screen / compound no. | 9 | 10 | 11 | 12 | 13 | 14 | 15 | 16
HCMV UL50-53 inh | 72.0* | -14.8 | -14.6 | / | 93.1* | -5.6 | -8.5 | /
GIV-Gai inh | / | 102.5 | / | 116.3 | / | / | 110.8 | 98.3

17) COc1ccc(CCN2C(=O)/C(=C/c3c(NCc4ccccc4)nc4ccccn4c3=O)SC2=S)cc1OC
18) CCNc1nc2ccccn2c(=O)c1/C=C1\SC(=S)N(Cc2ccco2)C1=O
19) O=C1/C(=C/c2c(NCc3ccco3)nc3ccccn3c2=O)SC(=S)N1C1CCCCC1
20) C=CCN1C(=O)/C(=C/c2c(NCC)nc3ccccn3c2=O)SC1=S
21) CCN1C(=O)/C(=C/c2c(NC(C)C)nc3ccccn3c2=O)SC1=S
22) C=CCN1C(=O)/C(=C/c2c(NCc3ccco3)nc3ccccn3c2=O)SC1=S
23) Cc1[nH]n(-c2nc(-c3ccccc3)cs2)c(=O)c1N=Nc1ccc(O)cc1
24) Cc1noc(-c2ccc(NC(=O)C3CC(=O)N(c4ccccc4C)C3)cc2)n1 (stereo not drawn)
Screen / compound no. | 17 | 18 | 19 | 20 | 21 | 22 | 23 | 24
HCMV UL50-53 inh | / | -11.4 | / | / | -13.2 | -14.0 | -12.1 | -11.1
GIV-Gai inh | 139.2 | -75.4* | 108.6 | -33.3* | 293.0 | -83.2* | 112.4 | 104.3

25) CCn1c(C)c(CN2CCC(C(=O)NCc3ccccn3)CC2)c2ccccc21
26) Oc1ccc2c(CN3CCCCC3)c(O)ccc2c1CN1CCCCC1
27) O=C1S/C(=C\c2ccc(N3CCOCC3)o2)C(=O)N1Cc1ccc(F)cc1
28) O=C(CN1C(=O)S/C(=C\c2ccc(N3CCOCC3)o2)C1=O)Nc1ccccc1F
29) CCOc1cc(C=C2C(=O)N(C)C(=O)N(C)C2=O)ccc1OCCOc1ccccc1
30) CCOc1cc(C=C2C(=O)N(C)C(=O)N(C)C2=O)ccc1OCCOc1ccc(C)cc1
31) O=S(=O)(c1ccccc1)c1nnn2c1nc(N1CCCC1)c1sccc12
32) CC1=CS/C(=C(/C#N)C(N)=O)N1c1ccccc1
Screen / compound no. | 25 | 26 | 27 | 28 | 29 | 30 | 31 | 32
HCMV UL50-53 inh | / | -8.9 | -32.5 | -26.3 | 16.9 | 61.4* | -1.2 | -10.7
GIV-Gai inh | 93.7 | / | 258.5 | -19.3* | 108.0 | 106.2 | 104.0 | 104.4

33) N#C/C(C(=O)c1ccccc1)=C1/SC=C(N)N1c1ccccc1
34) Cc1cc(C2CCCN2Cc2cn(C)nc2C)on1 (stereo not drawn)
35) COc1cc(C2C=C(c3cccs3)Nc3ncnn32)cc(OC)c1OC (stereo not drawn)
36) C1=C(c2ccccc2)Nc2ncnn2C1c1ccccc1 (stereo not drawn)
37) CC1CC(C)CN(CCCN)C1 (stereo not drawn)
38) CCOc1ccc(NS(=O)(=O)c2ccc3nc(-c4ccccc4)[nH]c3c2)cc1
39) CCOc1ccc(-c2nc3ccc(-c4nc5ccc(N6CCN(C)CC6)cc5[nH]4)cc3[nH]2)cc1
40) CCOc1ccccc1N1COc2ccc3c(C)cc(=O)oc3c2C1
Screen / compound no. | 33 | 34 | 35 | 36 | 37 | 38 | 39 | 40
HCMV UL50-53 inh | -26.0 | / | / | -15.7 | -21.6 | -13.5 | 75.3* | /
GIV-Gai inh | -51.0* | 107.5 | -0.1* | / | 101.3 | 105.8 | / | 106.6

41) O=S(=O)(Cc1ccccc1)N1CCCC1c1cccc(F)c1 (stereo not drawn)
42) O=C1CCNc2cc3ccccc3cc21
43) O=C1CCNc2ccc(-c3ccccc3)cc21
44) CCc1ccc2cc(CNC3CCCCC3)c(=O)[nH]c2c1
45) CC/C(O)=C1/C(=O)CC(C)(C)CC1=Nc1cccc2ccccc12
46) O=C(NC1(O)C(=O)c2ccccc2C1=O)c1cnn(-c2ccccc2)c1C(F)(F)F
47) CSc1ncccc1C(=O)Nc1ccccc1C
48) Cc1nc(C(=O)NC2(O)C(=O)c3ccccc3C2=O)cs1
Screen / compound no. | 41 | 42 | 43 | 44 | 45 | 46 | 47 | 48
HCMV UL50-53 inh | -8.4 | -73.4 | -58.4 | -0.6 | -30.1 | 49.4 | / | 59.9*
GIV-Gai inh | 100.0 | 118.7 | 14.2* | 110.0 | / | 87.4 | 103.9 | 94.9

Three entries from above, sorted by their value in GIV-Gai inh, smallest number first:
| No. | compound | GIV-Gai inh |
| --- | --- | --- |
| 22 | C=CCN1C(=O)/C(=C/c2c(NCc3ccco3)nc3ccccn3c2=O)SC1=S | -83.2* |
| 20 | C=CCN1C(=O)/C(=C/c2c(NCC)nc3ccccn3c2=O)SC1=S | -33.3* |
| 38 | CCOc1ccc(NS(=O)(=O)c2ccc3nc(-c4ccccc4)[nH]c3c2)cc1 | 105.8 |

Single records (already shown). Order of values: HCMV UL50-53 inh, GIV-Gai inh
`O=C1CCNc2ccc(-c3ccccc3)cc21` as listed: -58.4, 14.2*
`CCc1ccc2cc(CNC3CCCCC3)c(=O)[nH]c2c1` as listed: -0.6, 110.0

The list goes on.
49) CSc1ncccc1C(=O)NC1(O)C(=O)c2ccccc2C1=O
50) COc1ccc(C(O)(C(=O)NNc2cccc(Cl)c2)c2ccc(OC)cc2)cc1
51) Cc1cc2c(cc3c(SCc4ccccc4)nncn32)o1
52) O=S(=O)(NCCn1c(-c2ccncc2)nc2cccnc21)c1ccc(Cl)cc1
53) NCCNC(=O)CCc1n[nH]c(=O)c2ccccc12
54) Cc1ccc(Nc2cc(N(C)C)c3noc4c3c2C(=O)c2ccccc2-4)cc1
55) CC1CCN(CCNc2cc(N(C)C)c3noc4c3c2C(=O)c2ccccc2-4)CC1
56) CN(C)c1cc(Nc2ccc(Cl)cc2)c2c3c(onc13)-c1ccccc1C2=O
Screen / compound no. | 49 | 50 | 51 | 52 | 53 | 54 | 55 | 56
HCMV UL50-53 inh | 56.1* | / | / | 0.1 | -29.7 | / | -134.6 | -22.9
GIV-Gai inh | 93.1 | 100.6 | 102.4 | 104.8 | 102.1 | 114.6 | -4.4* | 111.1

57) CCNc1cc(N(C)C)c2noc3c2c1C(=O)c1ccccc1-3
58) Cc1c(N2CCN(C(=O)CC(C)C)CC2)c(=O)n(C)c(=O)n1-c1ccccc1
59) c1ccc(-c2nnc(CN3CCc4ccccc4C3)o2)cc1
60) COc1ccc(/C(O)=C(/C#N)c2nc3ccccc3s2)cc1
61) COc1ccc(N2CCN(/C=C(\C#N)c3nc4ccccc4s3)CC2)cc1
62) Nc1c(C(=O)Nc2ccc(F)c(F)c2)sc2nc(-c3ccncc3)ccc12
63) Cc1ccc(NC(=O)c2sc3nc(-c4ccncc4)ccc3c2N)cc1
64) O=C(NCC1CCCO1)c1ccc(CN2CCc3ccccc3C2)cc1 (stereo not drawn)
Screen / compound no. | 57 | 58 | 59 | 60 | 61 | 62 | 63 | 64
HCMV UL50-53 inh | / | -24.8 | -20.5 | -10.1 | 5.3 | 2.2 | 2.2 | -7.1
GIV-Gai inh | -21.2* | 107.8 | 109.2 | / | -61.0* | 124.1 | -53.5* | /

65) Cc1ccc(CNC(=O)COc2nc3ccccc3nc2N2CCOCC2)cc1
66) CC(C)[C@H](NC(=O)c1ccccc1)C(=O)OCn1nnc2ccccc2c1=O
67) NS(=O)(=O)c1ccc2c3c(cccc13)C(=O)N2
68) Nc1ccc2c3c(cccc13)C(=O)C=C2
69) O=C(NC1CCCCC1)C1CCCN(c2ccc3cc(S(=O)(=O)N4CCCCC4)ccc3n2)C1 (stereo not drawn)
70) O=C(NC1CCN(Cc2ccccc2)CC1)C1CCN(c2ccc(-c3ccccc3)nn2)CC1
71) O=C(NC1CCCC1)C1CCN(c2ccc(-c3ccccc3)nn2)CC1
72) Cc1ccc(CSc2nc(-c3cccs3)ccc2C#N)cc1
Screen / compound no. | 65 | 66 | 67 | 68 | 69 | 70 | 71 | 72
HCMV UL50-53 inh | -8.9 | -36.7 | -69.6 | 56.8* | -34.5 | 29.3* | -25.3 | -29.9
GIV-Gai inh | / | / | / | -30.3* | 102.8 | 106.0 | 105.4 | 103.1

73) Cc1ccc(CSc2nc(C(=O)O)ccc2C#N)cc1
74) COc1ccc(C2CC(=O)N(c3cc(C)ccc3C)C(=O)C2)cc1OC
75) Cc1c(/C=C2\SC(c3ccccc3)=NC2=O)c(=O)n(-c2ccccc2)n1C
76) O=C1N=C(c2ccccc2)S/C1=C\c1cccs1
Screen / compound no. | 73 | 74 | 75 | 76
HCMV UL50-53 inh | 53.9* | -34.9 | / | /
GIV-Gai inh | / | 103.1 | -4.0* | 113.2
